Molecular target: T1, Recombinant human Syk (GST-Syk kinase fusion protein) (Homo sapiens, UniProt P43405)
T1 construct: made in house
Experiment: Syk Kinase Test (Kinase Glo Luminescence Kinase test)
Format: biochemical
Settings: 1 μM test substance; negative control (no kinase) = 100% inhibition, positive control (no test substance) = 0% inhibition
Description: The catalytic activity of the GST-Syk kinase fusion protein was determined using the Kinase Glo® Luminescence Kinase test of Messrs Promega. In this homogeneous test the amount of ATP remaining after the kinase reaction has been carried out is quantified by a luciferin-luciferase reaction using luminescence. The luminescence signal obtained correlates with the amount of ATP still present and thus correlates inversely with the activity of the protein kinase.
The test substances were dissolved in 100% DMSO at a concentration of 10 mM and diluted in DMSO to a concentration of 1 mM. […] GST-Syk was diluted to 6.0 nM in the test buffer and 10 μl of this dilution were used in the kinase test (final concentration of Syk=4 nM in a total volume of 15 μl).
Positive controls are the reaction mixtures that contain no test substance; negative controls are reaction mixtures that contain no kinase. […]
The output file of the “MicroBeta TRILUX” is a text file that contains the well number and measurements obtained. […] Then from this the % inherent value for the measurement of each substance concentration was calculated using an “MS-Excel-VB macro”. […] The IC50 values were calculated from the % inhibition values using “GraphPadPrism” software (Version 5) (GraphPad Software Inc.).

| Compound | % INHB SYK at 1 μM |
| --- | --- |
| O=C1CC(COc2nc(-c3ccc(N4CCOCC4)cc3)cc3ncccc23)CN1 (centres unmarked) [Example 65, 4-[7-(4-morpholin-4-yl-phenyl)-[1,6]naphthyridin-5-yloxymethyl]-pyrrolidin-2-one] | 91.5% |
| O=C1C[C@@H](COc2nc(-c3ccc(N4CCOCC4)cc3)cc3ncccc23)CN1 [Example 84, (R)-4-[7-(4-morpholin-4-yl-phenyl)-[1,6]naphthyridin-5-yloxymethyl]-pyrrolidin-2-one] | 90.1% |

From patent US20110201608A1 (BOEHRINGER INGELHEIM INTERNATIONAL GMBH, priority 2008, published 2011)
